From US9840507B2, “5,6-dihydro-imidazo[1,2-a]pyrazin-8-ylamine derivatives useful as inhibitors of beta-secretase (BACE)” (Janssen Pharmaceutica, NV, priority 2010, dated 2017)

Chains of the proteins cited; added tags and fusions are not shown. Residues count along the entry.
UniProt P56817, 46-501 limits assumed: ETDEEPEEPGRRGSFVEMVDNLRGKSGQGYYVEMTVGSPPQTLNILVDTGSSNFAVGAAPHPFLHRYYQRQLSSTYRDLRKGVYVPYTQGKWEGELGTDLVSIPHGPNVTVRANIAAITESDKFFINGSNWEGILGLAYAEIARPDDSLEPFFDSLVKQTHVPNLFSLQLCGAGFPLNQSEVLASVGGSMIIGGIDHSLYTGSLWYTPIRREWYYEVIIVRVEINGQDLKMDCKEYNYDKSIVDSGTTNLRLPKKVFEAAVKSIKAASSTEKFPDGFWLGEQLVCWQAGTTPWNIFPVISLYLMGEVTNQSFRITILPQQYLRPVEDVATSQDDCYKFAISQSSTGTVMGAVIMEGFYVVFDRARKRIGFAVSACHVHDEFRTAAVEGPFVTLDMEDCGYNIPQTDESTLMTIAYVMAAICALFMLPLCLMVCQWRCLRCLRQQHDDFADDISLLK

Each compound was assayed against recombinant BACE1 protein (Homo sapiens, UniProt P56817) (assay: Biochemical FRET based assay). Details: recombinant BACE1 1 μg/ml, 10 μm substrate, 120 minutes, room temperature, pH 5.0.

Point of comparison: `C[C@@]1(c2cccc(NC(=O)c3ncc(Cl)cc3Cl)c2)Cn2ccnc2C(N)=N1`, “Biochemical FRET based assay pIC50” value 6.95. Against it:
- COc1cnc(C(=O)Nc2ccc(F)c([C@]3(C)Cn4cc(C(F)F)nc4C(N)=N3)c2)cn1 — lower, 6.63
- C[C@@]1(c2cccc(NC(=O)c3ccc(Cl)cn3)c2)Cn2ccnc2C(N)=N1 — within 0.2 log units, 6.76
- COc1cnc(C(=O)Nc2ccc(F)c([C@]3(C)Cn4c(C#N)cnc4C(N)=N3)c2)cn1 — higher, 7.33
- C[C@@]1(c2cc(NC(=O)c3ccc(Cl)cn3)ccc2F)Cn2c(C#N)cnc2C(N)=N1 — higher, 7.29
- COc1cnc(C(=O)Nc2cccc([C@]3(C)Cn4ccnc4C(N)=N3)c2)cn1 — lower, 6.14
- C[C@@]1(c2cccc(NC(=O)c3ccc(C#N)cn3)c2)Cn2ccnc2C(N)=N1 — within 0.2 log units, 6.78
- C[C@@]1(c2cc(NC(=O)c3ccc(F)cn3)ccc2F)Cn2cc(C(F)F)nc2C(N)=N1 — within 0.2 log units, 6.88

These compounds were tested on Aβ42 produced and secreted into the medium of human neuroblastoma SKNBE2 cells (assay: Cellular αlisa assay in SKNBE2 cells, Aβ42). Details: SKNBE2 cells expressing hAPP695, incubated for 18 hours.
Type: cell-based
Method: (§1) In two αlisa assays the levels of Aβtotal and Aβ42 produced and secreted into the medium of human neuroblastoma SKNBE2 cells are quantified. The assay is based on the human neuroblastoma SKNBE2 expressing the wild type Amyloid Precursor Protein (hAPP695). The compounds are diluted and added to these cells, incubated for 18 hours and then measurements of Aβ42 and Aβtotal are taken. Aβtotal and Aβ42 are measured by sandwich αlisa. αlisa is a sandwich assay using biotinylated antibody AbN/25 attached to streptavidin coated beads and antibody Ab4G8 or cAb42/26 conjugated acceptor beads for the detection of Aβtotal and Aβ42 respectively. In the presence of Aβtotal or Aβ42, the beads come into close proximity. The excitation of the Donor beads provokes the release of singlet oxygen molecules that triggers a cascade of energy transfer in the Acceptor beads, resulting in light emission. Light emission is measured after 1 hour incubation (excitation at […] and emission at 615 nm).
(§2) A best-fit curve is fitted by a minimum sum of squares method to the plot of % Controlmin versus compound concentration.
(§3) LC=Median of the low control values
(§4) =Low control: cells preincubated without compound, without biotinylated Ab in the αlisa
(§5) HC=Median of the High control values
(§6) =High Control: cells preincubated without compound % Effect=100−[(sample−LC)/(HC−LC)*100] % Control=(sample/HC)*100% % Controlmin=(sample−LC)/(HC−LC)*100

Point of comparison: `C[C@@]1(c2cccc(NC(=O)c3ccc(Cl)cn3)c2)Cn2ccnc2C(N)=N1`, “Cellular αlisa assay in SKNBE2 cells Aβ42 pIC50” value 7.60. Against it:
- COc1cnc(C(=O)Nc2ccc(F)c([C@]3(C)Cn4cc(C(F)F)nc4C(N)=N3)c2)cn1 — lower, 7.39
- C[C@@]1(c2cccc(NC(=O)c3ncc(Cl)cc3Cl)c2)Cn2ccnc2C(N)=N1 — within 0.2 log units, 7.65
- COc1cnc(C(=O)Nc2cccc([C@]3(C)Cn4ccnc4C(N)=N3)c2)cn1 — lower, 7.09
- C[C@@]1(c2cccc(NC(=O)c3ccc(C#N)cn3)c2)Cn2ccnc2C(N)=N1 — within 0.2 log units, 7.68
- C[C@@]1(c2cc(NC(=O)c3ccc(F)cn3)ccc2F)Cn2cc(C(F)F)nc2C(N)=N1 — within 0.2 log units, 7.43

What follows are compounds tested on Aβtotal produced and secreted into the medium of human neuroblastoma SKNBE2 cells (assay: Cellular αlisa assay in SKNBE2 cells, Aβtotal). Details: SKNBE2 cells expressing hAPP695, incubated for 18 hours.
Type: cell-based
Method: as §1, §2, §3, §4, §5, §6

Point of comparison: `COc1cnc(C(=O)Nc2cccc([C@]3(C)Cn4ccnc4C(N)=N3)c2)cn1`, “Cellular αlisa assay in SKNBE2 cells Aβtotal pIC50” value 7.08. Against it:
- COc1cnc(C(=O)Nc2ccc(F)c([C@]3(C)Cn4cc(C(F)F)nc4C(N)=N3)c2)cn1 — higher, 7.36
- C[C@@]1(c2cccc(NC(=O)c3ncc(Cl)cc3Cl)c2)Cn2ccnc2C(N)=N1 — higher, 7.67
- C[C@@]1(c2cccc(NC(=O)c3ccc(Cl)cn3)c2)Cn2ccnc2C(N)=N1 — higher, 7.60
- C[C@@]1(c2cccc(NC(=O)c3ccc(C#N)cn3)c2)Cn2ccnc2C(N)=N1 — higher, 7.67
- C[C@@]1(c2cc(NC(=O)c3ccc(F)cn3)ccc2F)Cn2cc(C(F)F)nc2C(N)=N1 — higher, 7.44
